According to patent US20050281814A1, “Combination radiation therapy and chemotherapy in conjunction with administration of growth factor receptor antibody” (priority 2000, published 2005):

Test system: MAI PaCa-2 cells
Assay: MiaPaCa-2 xenograft tumor therapy study with Herceptin, gemcitabine and radiation
Assay type: in vivo, athymic nude mice
Conditions: Herceptin 1 mg i.p. every 3 days ×12, gemcitabine 120 mg/kg every 6 days ×6, radiation 3 Gy every 6 days ×6

## Herceptin: anti-erbB-2 monoclonal antibody available commercially from Genentech, used for treatment of breast cancer
  tumor regressions (percent of group): 12.5%
